Target: Induced myeloid leukemia cell differentiation protein Mcl-1 (Homo sapiens, UniProt Q07820)
Assay: Inhibition of MCL1 (unknown origin)

Sequences of proteins named here, by UniProt entry; tags and fusion partners are left off.
UniProt Q07820, whole entry: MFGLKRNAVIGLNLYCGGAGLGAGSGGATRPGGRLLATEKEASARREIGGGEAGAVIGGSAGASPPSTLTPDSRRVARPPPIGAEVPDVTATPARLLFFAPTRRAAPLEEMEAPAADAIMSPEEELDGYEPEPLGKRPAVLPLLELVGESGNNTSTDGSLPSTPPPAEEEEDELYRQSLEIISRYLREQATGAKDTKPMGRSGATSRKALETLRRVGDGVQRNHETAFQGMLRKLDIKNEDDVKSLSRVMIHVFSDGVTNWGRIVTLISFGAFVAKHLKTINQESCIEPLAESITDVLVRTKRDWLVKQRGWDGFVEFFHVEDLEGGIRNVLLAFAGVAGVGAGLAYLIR

IC50: 180 nM
SMILES: O=C(O)CSc1cc(NS(=O)(=O)c2ccc(Oc3ccccc3)cc2)c2ccccc2c1O
